Assay results as given in patent US9040534B2 (Janssen Pharmaceutica NV, priority 2013, dated 2015).

Protein sequences, listed by entry. Tags and fused reporters are not part of them. Lines headed by an entry give the natural chain unless they say otherwise; changes in a name come on top.
UniProt Q64663: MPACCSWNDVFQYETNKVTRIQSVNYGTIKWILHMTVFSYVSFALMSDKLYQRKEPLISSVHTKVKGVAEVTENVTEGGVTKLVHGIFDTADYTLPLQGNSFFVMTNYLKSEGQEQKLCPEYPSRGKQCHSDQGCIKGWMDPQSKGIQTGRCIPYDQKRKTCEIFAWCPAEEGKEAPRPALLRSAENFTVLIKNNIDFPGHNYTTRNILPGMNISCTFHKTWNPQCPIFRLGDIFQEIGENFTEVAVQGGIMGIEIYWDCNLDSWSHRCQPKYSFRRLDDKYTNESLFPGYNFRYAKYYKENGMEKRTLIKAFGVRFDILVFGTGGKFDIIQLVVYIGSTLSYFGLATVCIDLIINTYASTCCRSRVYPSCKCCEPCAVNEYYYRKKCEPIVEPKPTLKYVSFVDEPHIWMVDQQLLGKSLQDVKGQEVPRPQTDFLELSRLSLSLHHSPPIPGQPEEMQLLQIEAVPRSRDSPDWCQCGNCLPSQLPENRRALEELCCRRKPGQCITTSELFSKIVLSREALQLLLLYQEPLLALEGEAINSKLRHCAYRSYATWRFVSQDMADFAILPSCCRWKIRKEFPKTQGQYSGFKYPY
UniProt Q99572: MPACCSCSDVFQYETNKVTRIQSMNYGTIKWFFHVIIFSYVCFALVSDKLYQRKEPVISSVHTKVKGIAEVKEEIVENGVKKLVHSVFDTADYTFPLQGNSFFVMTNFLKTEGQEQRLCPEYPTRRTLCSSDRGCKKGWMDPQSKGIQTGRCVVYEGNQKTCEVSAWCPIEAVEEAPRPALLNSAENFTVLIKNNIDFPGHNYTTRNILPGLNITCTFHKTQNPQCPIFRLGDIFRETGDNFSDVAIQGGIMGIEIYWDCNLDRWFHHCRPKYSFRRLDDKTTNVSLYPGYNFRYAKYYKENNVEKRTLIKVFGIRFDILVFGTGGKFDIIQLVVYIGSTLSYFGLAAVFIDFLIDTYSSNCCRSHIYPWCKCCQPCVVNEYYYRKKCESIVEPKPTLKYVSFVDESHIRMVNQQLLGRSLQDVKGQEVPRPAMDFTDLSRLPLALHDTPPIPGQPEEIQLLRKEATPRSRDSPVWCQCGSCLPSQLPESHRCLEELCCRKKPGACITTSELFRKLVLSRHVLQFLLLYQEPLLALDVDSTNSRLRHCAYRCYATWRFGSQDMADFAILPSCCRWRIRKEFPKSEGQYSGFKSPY

Tests used:
rat P2X7 [1] = target: T1, rat P2X7 (Rattus norvegicus (Rat), UniProt Q64663); assay: Ca2+ flux (FLIPR) in 1321N1 cells expressing recombinant rat P2X7 channel; format: cell-based; conditions: 250 μM BzATP
Procedure: (A) Ca^2+ Flux: 1321N1 cells expressing the recombinant human, rat or mouse P2X7 channel was cultured in HyQ DME/(HyClone/Dulbecco's Modified Eagle Medium) high glucose supplemented with 10% Fetal Bovine Serum (FBS) and appropriate selection marker. Cells were seeded at a density of 25000 cells/well (96-well clear bottom black walled plates) in 100 μl volume/well. On the day of the experiment, cell plates were washed with assay buffer, containing (in mM): 130 NaCl, 2 KCl, 1 CaCl2, 1 MgCl2, 10 HEPES, 5 glucose; pH 7.40 and 300 mOs. After the wash, cells were loaded with the Calcium-4 dye (Molecular Device) and incubated in the dark for 60 minutes. Test compounds were prepared at 250× the test concentration in neat DMSO. Intermediate 96-well compound plates were prepared by transferring 1.2 μL of the compound into 300 μL of assay buffer. A further 3× dilution occurred when transferring 50 μL/well of the compound plate to 100 μL/well in the cell plate. Cells were incubated with test compounds and dye for 30 minutes. […] The fluorescence change was measured 180 seconds after adding the agonist.

P2X7 = P2X7 (Homo sapiens (Human), UniProt Q99572); assay: Radioligand binding, human P2X7-1321N1 cell membranes, tritiated A-804598 tracer; conditions: 1 hour at 4° C.
Procedure: (B) Radioligand binding: human or rat P2X7-1321N1 cells were collected and frozen @ −80° C. On the day of the experiment, cell membrane preparations were made according to standard published methods. […] The compound can be prepared as described in the literature. […] The assay was terminated by filtration (GF/B filters pre-soaked with 0.3% PEI) and washed with washing buffer (Tris-HCl 50 mM). The IC50 generated in the binding assay was corrected for tracer concentration and affinity of the tracer to derive at the affinity (Ki) of the test compounds.

rat P2X7 [2] = target: T1, rat P2X7; assay: Radioligand binding, rat P2X7-1321N1 cell membranes, tritiated A-804598 tracer; conditions: 1 hour at 4° C.
Procedure: (B) Radioligand binding: human or rat P2X7-1321N1 cells were collected and frozen @ −80° C. On the day of the experiment, cell membrane preparations were made according to standard published methods. The total assay volume was 100 μl:10 μl compound (10×)+(b) 40 μl tracer (2.5×)+50 μl membrane (2×). The tracer used for the assay was tritiated A-804598. The compound can be prepared as described in the literature. (Donnelly-Roberts, D. Neuropharmacology 2009, 56 (1), 223-229.) Compounds, tracer and membranes were incubated for 1 hour @ 4° C. The assay was terminated by filtration (GF/B filters pre-soaked with 0.3% PEI) and washed with washing buffer (Tris-HCl 50 mM). The IC50 generated in the binding assay was corrected for tracer concentration and affinity of the tracer to derive at the affinity (Ki) of the test compounds.

Row | SMILES | IC50 (rat P2X7 [1]) [nM] | Ki (P2X7) [nM] | Ki (rat P2X7 [2]) [nM]
1 | CC(c1ccccc1)N1C(=O)c2nnc(-c3cnccn3)n2C[C@@H]1C (stereo partly drawn) [Example 92, (6S)-6-Methyl-7-(1-phenylethyl)-3-pyrazin-2-yl-6,7-dihydro[1,2,4]triazolo[4,3-a]pyrazin-8(5H)-one] |  |  | 16.4
2 | O=C1c2nnc(-c3ncccn3)n2C[C@@H](C2CC2)N1Cc1cccc(C(F)(F)F)c1Cl (single isomer, unassigned) [Example 65, (6R*)-7-[2-Chloro-3-(trifluoromethyl)benzyl]-6-cyclopropyl-3-pyrimidin-2-yl-6,7-dihydro[1,2,4]triazolo[4,3-a]pyrazin-8(5H)-one] | 396 | 100 | 
3 | C[C@H]1Cn2c(nnc2-c2cnco2)C(=O)N1Cc1cccc(C(F)(F)F)c1Cl [Example 22, (6S)-7-[2-Chloro-3-(trifluoromethyl)benzyl]-6-methyl-3-(1,3-oxazol-5-yl)-6,7-dihydro[1,2,4]triazolo[4,3-a]pyrazin-8(5H)-one] |  | 6.3 | 25.1
4 | C[C@H](c1ccccc1)N1C(=O)c2nnc(-c3cnccn3)n2C[C@@H]1C (relative stereo) [Example 94, (6S)-6-Methyl-7-[(1R*)-1-phenylethyl]-3-pyrazin-2-yl-6,7-dihydro[1,2,4]triazolo[4,3-a]pyrazin-8(5H)-one] |  |  | 123
5 | C[C@H]1Cn2c(nnc2C2CCN(C(=O)OC(C)(C)C)C2)C(=O)N1Cc1cccc(C(F)(F)F)c1Cl (stereo partly drawn) [Example 58, (6S)-tert-Butyl3-{7-[2-chloro-3-(trifluoromethyl)benzyl]-6-methyl-8-oxo-5,6,7,8-tetrahydro[1,2,4]triazolo[4,3-a]pyrazin-3-yl}pyrrolidine-1-carboxylate] | 24700 | 398 | 
6 | CC[C@H]1Cn2c(nnc2-c2cccnc2)C(=O)N1Cc1cccc(C(F)(F)F)c1Cl [Example 73, (6S)-7-[2-Chloro-3-(trifluoromethyl)benzyl]-6-ethyl-3-pyridin-3-yl-6,7-dihydro[1,2,4]triazolo[4,3-a]pyrazin-8(5H)-one] | 133 | 12.6 | 
7 | Cc1cnc(-c2nnc3n2C[C@H](C)N(Cc2cccc(C(F)(F)F)c2Cl)C3=O)cn1 [Example 19, (6S)-7-[2-Chloro-3-(trifluoromethyl)benzyl]-6-methyl-3-(5-methylpyrazin-2-yl)-6,7-dihydro[1,2,4]triazolo[4,3-a]pyrazin-8(5H)-one] |  | 3.2 | 6.3
8 | C[C@H]1Cn2c(nnc2-c2ccc(F)cc2)C(=O)N1Cc1cccc(C(F)(F)F)c1Cl [Example 17, (6S)-7-[2-Chloro-3-(trifluoromethyl)benzyl]-3-(4-fluorophenyl)-6-methyl-6,7-dihydro[1,2,4]triazolo[4,3-a]pyrazin-8(5H)-one] |  |  | 5

Continued by falling Ki (rat P2X7 [2]), values first:

Row | IC50 (rat P2X7 [1]) [nM] | Ki (P2X7) [nM] | Ki (rat P2X7 [2]) [nM] | SMILES
9 | 1580 | 1.4 | 3.5 | C[C@H]1Cn2c(nnc2-c2cocn2)C(=O)N1Cc1cccc(C(F)(F)F)c1Cl [Example 21, (6S)-7-[2-Chloro-3-(trifluoromethyl)benzyl]-6-methyl-3-(1,3-oxazol-4-yl)-6,7-dihydro[1,2,4]triazolo[4,3-a]pyrazin-8(5H)-one]
10 |  | 3.2 | 1.8 | CC[C@H]1Cn2c(nnc2-c2ncc(F)cn2)C(=O)N1Cc1cccc(C(F)(F)F)c1Cl [Example 75, (6S)-7-[2-Chloro-3-(trifluoromethyl)benzyl]-6-ethyl-3-(5-fluoropyrimidin-2-yl)-6,7-dihydro[1,2,4]triazolo[4,3-a]pyrazin-8(5H)-one]
11 |  | 2 | 0.4 | C[C@H]1Cn2c(nnc2-c2cscn2)C(=O)N1Cc1cccc(C(F)(F)F)c1Cl [Example 32, (6S)-7-[2-Chloro-3-(trifluoromethyl)benzyl]-6-methyl-3-(1,3-thiazol-4-yl)-6,7-dihydro[1,2,4]triazolo[4,3-a]pyrazin-8(5H)-one]
12 |  |  | 0.4 | C[C@H]1Cn2c(nnc2-c2ncccn2)C(=O)N1Cc1cccc(C(F)(F)F)c1Cl [Example 27, (6S)-7-[2-Chloro-3-(trifluoromethyl)benzyl]-6-methyl-3-pyrimidin-2-yl-6,7-dihydro[1,2,4]triazolo[4,3-a]pyrazin-8(5H)-one]
